## Apparent affinities of Ab-14 variants for a coronavirus HR2 peptide

The measurements come from Engelhart et al. 2022 (doi:10.1038/s41597-022-01779-4) through the FLAb antibody collection.

Target: peptide PDVDLGDISGINAS, taken from heptad repeat 2 (HR2) of SARS-CoV-2 spike.

Parent: Ab-14, a human scFv built as VH, a 15-residue (Gly4Ser)3 linker, VL. Only the CDRs of the heavy chain vary.
VH: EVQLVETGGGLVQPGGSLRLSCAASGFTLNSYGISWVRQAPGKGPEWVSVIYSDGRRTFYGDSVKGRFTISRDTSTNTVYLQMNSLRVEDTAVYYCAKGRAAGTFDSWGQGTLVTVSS
VL: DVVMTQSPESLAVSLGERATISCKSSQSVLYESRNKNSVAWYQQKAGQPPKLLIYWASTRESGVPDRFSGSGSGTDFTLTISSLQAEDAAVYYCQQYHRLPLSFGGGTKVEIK

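Phage display of a naive human antibody library on the peptide gave the parent. In library AAYL49, one, two or three CDR residues were substituted; doubles and triples were drawn at random. The assay is AlphaSeq: two haploid yeast populations carry antibody and antigen on their surface. Mating (16 h, 30 °C) was followed by selection of diploids and sequencing of their barcodes. Scores were corrected for input abundance and mapped to Kd with protein pairs of known affinity run in the same pool. Mating was done three times.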

Each variant is given by its three heavy chain CDRs, as the data file delimits them; those of the parent are GFTLNSYGIS, VIYSDGRRTFYGDSVK, GRAAGTFDS. Every variant below is changed at G61 of the VH (sequential numbering). Each Kd is an estimate from the mating assay, the geometric mean of the replicates in which the pair was seen; lower is stronger. Where no diploid with the target was found in any replicate, the entry reads "nd": below detection, most likely a poor binder, though not proof of it. The list is sorted by this average, lowest first, undetected variants last. In this assay the parent's reference entry averaged 4.4 nM; its copy inside this library read 13 µM (one replicate of three).

* GFDLNSYGIS, VIYSDGRRTIYTDSVK, GRAAGTFDS = 3.0 nM (3 of 3 replicates)
* GFTLNSYGIS, VIYSDGRRTFYCDSVK, GRAAGTFDS = 5.5 nM (3 of 3 replicates)
* RFTLNSYGIS, VIYSDGRRTFYADSVK, GRAAGTFDS = 9.7 nM (3 of 3 replicates)
* GFTLNSYGIS, VIYSDGRRTFVTDSVK, GRAAGTFDS = 9.7 nM (3 of 3 replicates)
* GFTLNSYGIS, VIYSDGRRTFYVDSVS, GAAAGTFDS = 41 nM (3 of 3 replicates)
* GFTLNSYGIS, IIYSDGRRTFYLDSVK, GRAAGTFDS = 58 nM (3 of 3 replicates)
* GFTLNSYGIS, VIYSDGRRTFYLDSVK, GRAAGTFDS = 110 nM (3 of 3 replicates)
* GFTLNSYGIS, VIYSDGRRTFYNDSVK, GRPAGTFKS = 1.4 µM (3 of 3 replicates)
* GFTLNSYGIS, VIYSDGWRTFYRMSVK, GRAAGTFDS = 1.9 µM (2 of 3 replicates)
* GFTLNSYGIS, VIYSDGRRTFYNDSVV, GRAAGTFDS = 5.5 µM (1 of 3 replicates)
* GFTLNSYIIS, VIYSDGRRTFWCDSVK, GRAAGTFDS = 6.5 µM (2 of 3 replicates)
* GFTLNSYGIS, NIYSDGRRTFYSQSVK, GRAAGTFDS = 11 µM (1 of 3 replicates)
* GFTLNSYGIS, VVYSDGRRTGYLDSVK, GRAAGTFDS = 11 µM (1 of 3 replicates)
* GFTLNSYGIS, VIYSDARRTFYEDSVP, GRAAGTFDS = 17 µM (1 of 3 replicates)
* GFTLNSYGIS, VIRSDGRRTFYTDSVK, GRATGTFDS = 27 µM (3 of 3 replicates)
* GFTLNSYGIS, VRYSDGRRGFYCDSVK, GRAAGTFDS = 30 µM (2 of 3 replicates)
* GFTLNSYGLS, VIYSDGRRTFYSDSVK, GRAARTFDS = 45 µM (2 of 3 replicates)
* GFTANSYGIK, VIYSDGRRTFYHDSVK, GRAAGTFDS = 45 µM (1 of 3 replicates)
* GFTLNSLGIS, VIYSDGRRTFLDDSVK, GRAAGTFDS = 48 µM (3 of 3 replicates)
* GFTLNEYGKS, VIYSDGRRTFYLDSVK, GRAAGTFDS = 64 µM (1 of 3 replicates)
* GFTLNSYGGS, VIYSDGMRTFYDDSVK, GRAAGTFDS = 64 µM (2 of 3 replicates)
* GYTLNSYGIS, VIYSDGRRTFEEDSVK, GRAAGTFDS = 77 µM (2 of 3 replicates)
* GFTLNSYGIS, VIYSDGRRTFTFDSVK, GRAALTFDS = 250 µM (1 of 3 replicates)
* GFTLNIYGIS, VIYSDGRRTFYWDSVK, GRAAGTFDD = 670 µM (1 of 3 replicates)
* GFTLNSRGIS, VIYSDGRRTRYPDSVK, GRAAGTFDS = nd (0 of 3 replicates)
* GFTLNSYGIS, VIYSDGRRTFYNDSVK, GRAAKTFQS = nd (0 of 3 replicates)
* GFTLNSYGIS, VVYSDGRRTFYNDSVD, GRAAGTFDS = nd (0 of 3 replicates)
* GFTLNSYCIS, VIYSDGRRAFYPDSVK, GRAAGTFDS = nd (0 of 3 replicates)
* GFTLNSYGIS, VIYSDGRRTFYNDSLK, GRAAGRFDS = nd (0 of 3 replicates)
* GHTLNSYGHS, VIYSDGRRTFYADSVK, GRAAGTFDS = nd (0 of 3 replicates)
* GFTLNSYGIS, VIYSDGRRTFYYDTVK, GRAEGTFDS = nd (0 of 3 replicates)
* GFDLNSYHIS, VIYSDGRRTFYHDSVK, GRAAGTFDS = nd (0 of 3 replicates)
* GFTLNSYLIS, VIYSDGRRTFYRDSVK, GRAAGGFDS = nd (0 of 3 replicates)
* GFTLNSYGIS, VIYSDGRRTFYPDFVK, GRAAGTFWS = nd (0 of 3 replicates)
* GFTLNSYGIS, VIYSDGRRTFYCDSRK, GHAAGTFDS = nd (0 of 3 replicates)
* GFTLNSYGIS, VIYSDGRRTFYWFSVK, GRAAGLFDS = nd (0 of 3 replicates)
* GFTLNSYRIH, VIYSDGRRTFYLDSVK, GRAAGTFDS = nd (0 of 3 replicates)
* GFTLNSYGCS, VIYSDGRRTFYFDSVK, GSAAGTFDS = nd (0 of 3 replicates)
* GFTLNSYGIS, VIYSDGRRIFGMDSVK, GRAAGTFDS = nd (0 of 3 replicates)

Three control strains display no target. For library AAYL49, 15% of the pairings with them gave a signal, with a median of 11 µM and one signal in twenty below 680 nM, so weak values seen in few replicates may be background.